# System: Oat1 or Oat3
# Experiment: Transporter induction experiments (RT-PCR of transporter mRNA in PKC)
# Assay type: cell-based, porcine
# Settings: 50 nM or 1 μM to basolateral compartment, 48 hours
smiles,measurement,value
C[C@]12CC[C@H]3[C@@H](CCC4=CC(=O)CC[C@@]43C)[C@@H]1CC[C@@H]2O [testosterone],Stimulatory effect on transporter mRNA expression,none of the tested substances showed any stimulatory effect
